Sequences of proteins named here, by UniProt entry; tags and fusion partners are left off.
UniProt P15381, whole entry: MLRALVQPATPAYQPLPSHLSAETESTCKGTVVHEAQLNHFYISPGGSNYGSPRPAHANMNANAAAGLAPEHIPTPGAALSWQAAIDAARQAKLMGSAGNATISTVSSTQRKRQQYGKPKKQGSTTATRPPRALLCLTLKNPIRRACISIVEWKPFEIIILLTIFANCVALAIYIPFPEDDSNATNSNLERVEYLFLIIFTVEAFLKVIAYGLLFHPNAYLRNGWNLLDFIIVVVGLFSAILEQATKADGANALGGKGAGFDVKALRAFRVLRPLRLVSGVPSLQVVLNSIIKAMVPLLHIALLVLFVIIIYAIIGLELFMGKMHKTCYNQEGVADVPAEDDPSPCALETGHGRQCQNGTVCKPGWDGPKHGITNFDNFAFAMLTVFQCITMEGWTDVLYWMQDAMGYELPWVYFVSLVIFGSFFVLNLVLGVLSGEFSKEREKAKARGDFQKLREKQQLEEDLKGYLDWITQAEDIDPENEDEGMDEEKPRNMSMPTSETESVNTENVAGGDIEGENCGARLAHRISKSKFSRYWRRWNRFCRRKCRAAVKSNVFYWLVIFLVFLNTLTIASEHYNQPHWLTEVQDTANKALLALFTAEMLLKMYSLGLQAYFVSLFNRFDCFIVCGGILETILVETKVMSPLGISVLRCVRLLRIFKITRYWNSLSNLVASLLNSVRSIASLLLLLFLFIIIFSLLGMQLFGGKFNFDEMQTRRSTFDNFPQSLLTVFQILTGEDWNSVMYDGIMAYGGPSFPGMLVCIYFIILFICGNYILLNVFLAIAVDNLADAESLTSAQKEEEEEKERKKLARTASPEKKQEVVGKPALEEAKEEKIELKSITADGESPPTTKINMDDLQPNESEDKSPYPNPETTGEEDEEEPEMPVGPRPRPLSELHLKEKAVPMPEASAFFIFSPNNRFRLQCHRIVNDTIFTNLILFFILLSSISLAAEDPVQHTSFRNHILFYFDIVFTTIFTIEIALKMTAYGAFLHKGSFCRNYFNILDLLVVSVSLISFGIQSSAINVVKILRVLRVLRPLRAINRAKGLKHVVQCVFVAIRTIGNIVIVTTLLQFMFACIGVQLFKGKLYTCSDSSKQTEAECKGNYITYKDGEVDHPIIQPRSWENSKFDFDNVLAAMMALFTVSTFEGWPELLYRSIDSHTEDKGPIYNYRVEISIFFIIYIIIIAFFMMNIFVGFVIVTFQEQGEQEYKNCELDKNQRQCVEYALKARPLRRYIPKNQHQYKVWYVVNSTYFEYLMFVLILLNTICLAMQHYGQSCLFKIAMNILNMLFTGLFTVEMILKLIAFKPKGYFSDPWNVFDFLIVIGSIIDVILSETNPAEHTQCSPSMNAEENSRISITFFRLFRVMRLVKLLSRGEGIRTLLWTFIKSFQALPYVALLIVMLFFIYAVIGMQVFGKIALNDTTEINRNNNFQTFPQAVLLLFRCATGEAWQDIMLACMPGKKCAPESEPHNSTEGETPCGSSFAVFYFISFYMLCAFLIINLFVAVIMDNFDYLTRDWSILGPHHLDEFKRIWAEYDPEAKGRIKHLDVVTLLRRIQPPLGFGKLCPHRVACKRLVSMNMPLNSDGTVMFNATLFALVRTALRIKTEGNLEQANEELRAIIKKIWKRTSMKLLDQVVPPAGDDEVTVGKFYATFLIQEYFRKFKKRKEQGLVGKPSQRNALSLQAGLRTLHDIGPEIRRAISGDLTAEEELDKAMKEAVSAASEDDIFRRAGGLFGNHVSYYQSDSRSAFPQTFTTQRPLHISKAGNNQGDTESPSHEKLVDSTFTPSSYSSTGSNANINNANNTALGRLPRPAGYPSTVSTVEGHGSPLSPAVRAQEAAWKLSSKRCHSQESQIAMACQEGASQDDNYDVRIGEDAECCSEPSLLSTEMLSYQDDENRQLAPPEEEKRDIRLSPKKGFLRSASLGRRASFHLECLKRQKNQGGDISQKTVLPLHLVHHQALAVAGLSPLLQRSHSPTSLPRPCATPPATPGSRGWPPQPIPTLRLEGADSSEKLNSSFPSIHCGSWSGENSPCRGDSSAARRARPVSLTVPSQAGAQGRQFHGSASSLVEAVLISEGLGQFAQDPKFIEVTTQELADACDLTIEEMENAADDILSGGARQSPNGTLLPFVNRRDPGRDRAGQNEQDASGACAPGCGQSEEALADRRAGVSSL

In patent US20020026051A1, “Dithiepino [6,5-b]pyridines, and related compositions and methods” (priority 1999, published 2002):

Target: T1, calcium channel (Oryctolagus cuniculus, UniProt P15381)
T1 construct: from tissue; host or cells: rabbit heart membrane preparation
Test: Assay for Inhibition of Nitrendipine Binding (3H-nitrendipine, heart membranes)
Settings: 3H-nitrendipine displacement, rabbit heart membranes; Tables 1-5
Procedure: Female, New Zealand white rabbits (1-2 kg) are sacrificed by cervical dislocation, and the heart is immediately removed, cleaned and chopped into small pieces. The tissue is homogenized in 5× times volume of 0.05M Hepes buffer, pH 7.4. The homogenate is centrifuged at 4000 g for 10 minutes, and the supernatant is re-centrifuged at 42,000×g for 90 minutes. The resulting membrane pellet is resuspended (0.7 ml/g weight) in 0.05M Hepes, pH 7.4 and stored at […] until used. Each tube of the binding assay contains ^3H-nitrendipine (0.05-0.50 nM), buffer, membranes (0.10 ml), and test compound in a total volume of 1.0 ml. After 90 minutes at 4° C., the bound nitrendipine is separated from the unbound by filtration on Whatman GF/C filters. After rinsing, the filters are dried and counted in a liquid scintillation counter.
Non-specific binding of ^3H-nitrendipine (that amount bound in the presence of excess unlabelled nitrendipine) is subtracted from the total bound to obtain specifically bound radiolabeled nitrendipine. The amount of specifically bound nitrendipine in the presence of a test compound is compared to that amount bound in the absence of a compound. A percent displacement (or inhibition) can then be calculated.

Substance | IC50 [nM]
5H-1,4-Dithiepino[6,5-b]pyridine-8-carboxylic acid, 9-(2-chloro-5-nitrophenyl)-2,3,6,9-tetrahydro-7-methyl-methyl ester 1,1,4,4-tetraoxide [Compound 12] | 261
2H,6H-1,5-Dithiocino[3,2-b]pyridine-9-carboxylic acid, 3,4,7,10-tetrahydro-8-methyl-10-(2-nitrophenyl)-2-[methyl(phenylmethyl)amino]ethyl ester 1,1,5,5-tetraoxide [Compound 30] | 716
